Measured values as given in patent publication US20260382690A1, “Dual-Domain Peptide for Depleting HMGB1 from the Circulation via Liver HSPG System” (published 2026).

System: GSNOR
Test: Lung GSNOR dehydrogenase activity in homogenates of treated SS mice (NADH consumption)
Conditions: 3 weeks, hE-HMGB1-BP or KYC; for lung GSNOR dehydrogenase activity versus AA mice: ns; for decrease of lung GSNOR dehydrogenase activity: p<0.05
Description: FIGS. 6A-6D. Effects of SCA and hE-HMGB1-BP and KYC Treatments on CD31 and GSNOR Lung Expression. (FIG. 6A) Lung Sections from AA and SS mice immunostained for CD31 and GSNOR. Representative merged lung sections (three each) from AA and SS mice treated with PBS, hE-HMGB1-BP, or KYC test groups. Sections were immunostained for CD31 (green), GSNOR (red), and nuclei (blue—DAPI). (FIG. 6B) Relative fluorescence intensities for CD31 were randomly captured from five to four regions. CD31 fluorescence intensities were determined using NIH Image J, tested for outliers, and averaged. Average intensities for CD31 in each lung were plotted as scatter plots in bars (mean±SD) for AA and SS mice treated with PBS, hE-HMGB1-BP, and KYC. ANOVA was used to analyze, with an appropriate post hoc test, differences between means (AA, n=4; SS+PBS, n=4; SS+hE-HMGB1-BP, n=4; and, SS+KYC, n=3, ***=p<0.001, **=p<0.05). (FIG. 6C) Relative fluorescence intensities for GSNOR were randomly captured from five to four regions. GSNOR fluorescence intensities were determined using NIH Image J, tested for outliers, and averaged. Average intensities for GSNOR in each lung were plotted as scatter plots in bars (mean±SD) for AA, SS mice treated with PBS, hE-HMGB1-BP, and KYC, showing the mean±SD for each test group. ANOVA was used to analyze differences between means with an appropriate post hoc test (AA, n=4; SS+PBS, n=4; SS+hE-HMGB1-BP, n=4; and SS+KYC, n=3, **=p<0.05, *=p<0.05). (FIG. 6D) GSNOR dehydrogenase activity in lung lysates was determined from the decrease in NADH absorbance at 340 nm after the addition of GSNO per Liu et al. The decrease in absorbance at 340 nm was calculated by subtracting the values of the negative controls from the absorbance in duplicate samples. The resulting GSNOR activity was expressed as a ratio of the absorbance decrease in individual samples to the average absorbance decrease in AA samples and plotted as scatter plots in bars (mean±SD). ANOVA was used to analyze differences between means with an appropriate post hoc test (AA, SS+PBS, SS+hE-HMGB1-BP, and SS+KYC: n=9 each test group, *=p<0.05).
GSNOR dehydrogenase activity was determined from NADH consumption per Liu et al. Briefly, frozen mouse lungs were lysed in Tris buffer (20 mM, pH 8.0) containing EDTA (0.5 mM) and protease inhibitors. Lysates were centrifuged (4 °C, 16,000 g, 10 min), and supernatant protein was determined with Pierce BCA protein assay kit (ThermoFisher 23225). Lysate aliquots (0.5 mg/ml) and 200 μM NADH (Sigma N8129) were added in duplicate to a 96-well UV transparent plate (ThermoFisher 8404). Lung GSNOR Enzyme activity was started by adding GSNO (Sigma 487920) to the assay mix (final concentration=400 μM in 200 μL). Tris buffer and 10 μg/mL recombinant GSNOR (ProSpec ENZ-595) were used as negative and positive controls, respectively. The plate was incubated at room temperature for 30 min, and absorbance at 340 nm was measured using a ThermoFisher UV/Vis microplate reader. The decrease in absorbance at 340 nm was calculated by subtracting the values of the negative controls from those of the samples. The resulting GSNOR activity was expressed as a ratio of the absorbance decrease in individual samples to the average absorbance decrease in AA samples.

| SMILES | lung GSNOR levels and activity (in words) | lung GSNOR dehydrogenase activity versus AA mice | decrease of lung GSNOR dehydrogenase activity |
| --- | --- | --- | --- |
| CC[C@H](C)[C@H](NC(=O)CNC(=O)[C@H](CCCCN)NC(=O)[C@@H](NC(=O)[C@H](CC(=O)O)NC(=O)[C@H](Cc1ccccc1)NC(=O)[C@H](CC(N)=O)NC(=O)[C@H](CC(N)=O)NC(=O)[C@H](C)NC(=O)[C@H](CO)NC(=O)[C@H](Cc1c[nH]cn1)NC(=O)[C@H](C)NC(=O)CNC(=O)CNC(=O)[C@H](CCCNC(=N)N)NC(=O)[C@H](CC(C)C)NC(=O)[C@H](CC(C)C)NC(=O)[C@H](CCCNC(=N)N)NC(=O)[C@H](CCCCN)NC(=O)[C@H](CCCNC(=N)N)NC(=O)[C@H](CC(C)C)NC(=O)[C@H](CCCCN)NC(=O)[C@H](CCCNC(=N)N)NC(=O)[C@H](CC(C)C)NC(C)=O)C(C)C)C(N)=O | reducing GSNOR levels and activity | essentially the same as the GSNOR dehydrogenase activity in lung homogenates from AA mice | approximately 18% |
| CC(=O)N[C@@H](CCCCN)C(=O)N[C@@H](Cc1ccc(O)cc1)C(=O)N[C@@H](CS)C(N)=O | – | essentially the same as the GSNOR dehydrogenase activity in lung homogenates from AA mice | approximately 18% |
